Consider 28 compounds from patent US20250195530A1, “POLQ INHIBITORS” (ASTRAZENECA AB, priority 2022, published 2025).

By UniProt entry, the sequences of proteins in these tests, tags left out. Residues count along the entry.
UniProt O75417, 1780-2590: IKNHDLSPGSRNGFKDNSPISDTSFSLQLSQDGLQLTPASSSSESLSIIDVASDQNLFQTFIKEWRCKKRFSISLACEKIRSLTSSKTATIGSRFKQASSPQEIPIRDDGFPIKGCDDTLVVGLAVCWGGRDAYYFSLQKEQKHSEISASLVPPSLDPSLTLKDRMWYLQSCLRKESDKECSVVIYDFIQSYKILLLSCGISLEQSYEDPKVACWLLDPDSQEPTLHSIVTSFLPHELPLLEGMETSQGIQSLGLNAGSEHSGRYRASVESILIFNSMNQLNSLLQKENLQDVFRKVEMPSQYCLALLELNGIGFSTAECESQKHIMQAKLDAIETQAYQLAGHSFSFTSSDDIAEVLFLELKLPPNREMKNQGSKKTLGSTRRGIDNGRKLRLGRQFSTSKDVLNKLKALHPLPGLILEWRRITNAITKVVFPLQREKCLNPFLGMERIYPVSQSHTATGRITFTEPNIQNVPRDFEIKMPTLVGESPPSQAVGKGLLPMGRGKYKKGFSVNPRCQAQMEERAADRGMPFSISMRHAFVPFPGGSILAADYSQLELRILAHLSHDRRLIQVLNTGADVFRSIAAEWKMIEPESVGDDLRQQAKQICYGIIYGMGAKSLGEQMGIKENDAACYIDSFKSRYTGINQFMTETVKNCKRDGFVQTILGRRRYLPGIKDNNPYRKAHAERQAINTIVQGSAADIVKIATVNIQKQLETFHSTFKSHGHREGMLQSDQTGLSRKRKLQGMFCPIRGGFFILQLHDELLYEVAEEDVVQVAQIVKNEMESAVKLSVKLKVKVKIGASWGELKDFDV

In the test the target is isolated polymerase domain (I1780-V2590) of DNA polymerase theta (Polθ) (Homo sapiens (Human), UniProt O75417). As to the kind of experiment: biochemical.

The term IC50 denotes the concentration that gives 50% inhibition. For `C[C@@H]1CNCCN1CCOc1ccc(-c2nc3c(OC4(C)CC4)ncnc3n2Cc2cc(Cl)ccn2)c(Cl)c1` [Example T522, (R)-8-(2-chloro-4-(2-(2-methylpiperazin-1-yl)ethoxy)phenyl)-9-((4-chloropyridin-2-yl)methyl)-6-(1-methylcyclopropoxy)-9H-purine], it took 6.31 nM to reach half-maximal inhibition (IC50). As for `C[C@H]1CNCCN1CCOc1ccc(-c2nc3c(OC4(C)CC4)ncnc3n2Cc2cc(Cl)ccn2)c(Cl)c1` [Example T523, (S)-8-(2-chloro-4-(2-(2-methylpiperazin-1-yl)ethoxy)phenyl)-9-((4-chloropyridin-2-yl)methyl)-6-(1-methylcyclopropoxy)-9H-purine], the figure is 3.98 nM. Compound `Cc1cc(Cl)nc(Cn2c(-c3ccc(OCCN4CCNCC4)cc3Cl)nc3c(OC4(C)CC4)ncnc32)c1` [Example T524, 8-(2-chloro-4-(2-(piperazin-1-yl)ethoxy)phenyl)-9-((6-chloro-4-methylpyridin-2-yl)methyl)-6-(1-methylcyclopropoxy)-9H-purine] gave an IC50 of 3.98 nM. Take `Cc1c(Cl)ccnc1Cn1c(-c2ccc(OCCN3CCNCC3)cc2Cl)nc2c(OC3(C)CC3)ncnc21` [Example T525, 9-((4-chloro-3-methylpyridin-2-yl)methyl)-8-(2-chloro-4-(2-(piperazin-1-yl)ethoxy)phenyl)-6-(1-methylcyclopropoxy)-9H-purine]: the IC50 was 12.6 nM. `Cc1cnc(Cn2c(-c3ccc(OCCN4CCNCC4)cc3Cl)nc3c(OC4(C)CC4)ncnc32)cc1Cl` [Example T526, 8-(2-chloro-4-(2-(piperazin-1-yl)ethoxy)phenyl)-9-((4-chloro-5-methylpyridin-2-yl)methyl)-6-(1-methylcyclopropoxy)-9H-purine] showed an IC50 of 3.98 nM. `Cc1cc(Cl)cc(Cn2c(-c3ccc(OCCN4CCNCC4)cc3Cl)nc3c(OC4(C)CC4)ncnc32)n1` [Example T527, 8-(2-chloro-4-(2-(piperazin-1-yl)ethoxy)phenyl)-9-((4-chloro-6-methylpyridin-2-yl)methyl)-6-(1-methylcyclopropoxy)-9H-purine] showed an IC50 of 5.01 nM. Compound `Cc1ccnc(Cn2c(-c3ccc(CCN4CCNCC4)cc3Cl)nc3c(OC4(C)CC4)ncnc32)c1` [Example T528, 8-(2-chloro-4-(2-(piperazin-1-yl)ethyl)phenyl)-6-(1-methylcyclopropoxy)-9-((4-methylpyridin-2-yl)methyl)-9H-purine] gave an IC50 of 3.98 nM. In turn, `Cc1cc(OCCN2CCNCC2)ccc1-c1nc2c(OC3(C)CC3)ncnc2n1Cc1cc(Cl)ccn1` [Example T529, 9-((4-chloropyridin-2-yl)methyl)-8-(2-methyl-4-(2-(piperazin-1-yl)ethoxy)phenyl)-6-(1-methylcyclopropoxy)-9H-purine] gave an IC50 of 7.94 nM. As for `Cc1cncc(Cn2c(-c3ccc(OCCN4CCNCC4)cc3Cl)nc3c(OC4(C)CC4)ncnc32)c1` [Example T530, 8-(2-chloro-4-(2-(piperazin-1-yl)ethoxy)phenyl)-6-(1-methylcyclopropoxy)-9-((5-methylpyridin-3-yl)methyl)-9H-purine], the IC50 is 12.6 nM.

Turning to `Cc1cc(Cn2c(-c3ccc(OCCN4CCNCC4)cc3Cl)nc3c(OC4(C)CC4)ncnc32)ccn1` [Example T531, 8-(2-chloro-4-(2-(piperazin-1-yl)ethoxy)phenyl)-6-(1-methylcyclopropoxy)-9-((2-methylpyridin-4-yl)methyl)-9H-purine], the IC50 was 126 nM. Turning to `COc1ccc(Cn2c(-c3ccc(OCCN4CCNCC4)cc3Cl)nc3c(OC4(C)CC4)ncnc32)nc1` [Example T532, 8-(2-chloro-4-(2-(piperazin-1-yl)ethoxy)phenyl)-9-((5-methoxypyridin-2-yl)methyl)-6-(1-methylcyclopropoxy)-9H-purine], half-maximal inhibition (IC50) was put at 39.8 nM. Against the preceding compound, the IC50 is about 3.2-fold lower. For `Cc1ccnc(Cn2c(-c3ccc(OCC(=O)N4CC[C@@H](C#N)C4)cc3Cl)nc3c(OC4(C)CC4)ncnc32)c1` [Example T538, (R)-1-(2-(3-chloro-4-(6-(1-methylcyclopropoxy)-9-((4-methylpyridin-2-yl)methyl)-9H-purin-8-yl)phenoxy)acetyl)pyrrolidine-3-carbonitrile], the IC50 was 10 nM. `Cc1ccnc(Cn2c(-c3ccc(OCC(=O)N4CCC[C@H]4C#N)cc3Cl)nc3c(OC4(C)CC4)ncnc32)c1` [Example T539, (S)-1-(2-(3-chloro-4-(6-(1-methylcyclopropoxy)-9-((4-methylpyridin-2-yl)methyl)-9H-purin-8-yl)phenoxy)acetyl)pyrrolidine-2-carbonitrile] had an IC50 of 10 nM. For `Cc1ccnc(Cn2c(-c3ccc(CC(=O)N4C[C@H]5C[C@@H](C4)O5)cc3Cl)nc3c(OC4(C)CC4)ncnc32)c1` [Example T547, rel-1-((1R,5S)-6-oxa-3-azabicyclo[3.1.1]heptan-3-yl)-2-(3-chloro-4-(6-(1-methylcyclopropoxy)-9-((4-methylpyridin-2-yl)methyl)-9H-purin-8-yl)phenyl)ethan-1-one], half-maximal inhibition (IC50) was put at 7.94 nM. The figure for `Cc1ccnc(Cn2c(-c3ccc(OCC(=O)N4C[C@H]5C[C@@H](C4)O5)cc3Cl)nc3c(OC4(C)CC4)ncnc32)c1` [Example T550, rel-1-((1R,5S)-6-oxa-3-azabicyclo[3.1.1]heptan-3-yl)-2-(3-chloro-4-(6-(1-methylcyclopropoxy)-9-((4-methylpyridin-2-yl)methyl)-9H-purin-8-yl)phenoxy)ethan-1-one] is 10 nM; for `CC1(Oc2ncnc3c2nc(-c2ccc(OCCN4CCC[C@H]4C(=O)O)cc2Cl)n3Cc2cccc(Cl)c2)CC1` [Example T551, (2-(3-chloro-4-(9-(3-chlorobenzyl)-6-(1-methylcyclopropoxy)-9H-purin-8-yl)phenoxy)ethyl)-L-proline] it is 6.31 nM. The figure for `Cc1ccnc(Cn2c(-c3ccc(OCC(=O)N4CCC[C@H](F)C4)cc3Cl)nc3c(OC4(C)CC4)ncnc32)c1` [Example T552, (S)-2-(3-chloro-4-(6-(1-methylcyclopropoxy)-9-((4-methylpyridin-2-yl)methyl)-9H-purin-8-yl)phenoxy)-1-(3-fluoropiperidin-1-yl)ethan-1-one] is 7.94 nM; for `Cc1ccnc(Cn2c(-c3ccc(OCC(=O)N4CCC(F)CC4)cc3Cl)nc3c(OC4(C)CC4)ncnc32)c1` [Example T553, 2-(3-chloro-4-(6-(1-methylcyclopropoxy)-9-((4-methylpyridin-2-yl)methyl)-9H-purin-8-yl)phenoxy)-1-(4-fluoropiperidin-1-yl)ethan-1-one] it is 5.01 nM; for `CC1(Oc2ncnc3c2nc(-c2ccc(OCCCN4CC[C@@H](O)C4)cc2Cl)n3Cc2cc(C(F)(F)F)ccn2)CC1` [Example T554, (R)-1-(3-(3-chloro-4-(6-(1-methylcyclopropoxy)-9-((4-(trifluoromethyl)pyridin-2-yl)methyl)-9H-purin-8-yl)phenoxy)propyl)pyrrolidin-3-ol] it is 7.94 nM. The compound `Cc1ccnc(Cn2c(-c3ccc(CC(=O)N4CC5CC(C4)N5)cc3Cl)nc3c(OC4(C)CC4)ncnc32)c1` [Example T555, 1-(3,6-diazabicyclo[3.1.1]heptan-3-yl)-2-(3-chloro-4-(6-(1-methylcyclopropoxy)-9-((4-methylpyridin-2-yl)methyl)-9H-purin-8-yl)phenyl)ethan-1-one] had an IC50 of 3.16 nM. As for `Cc1ccnc(Cn2c(-c3ccc(CC(=O)N4CC5(CCN5)C4)cc3Cl)nc3c(OC4(C)CC4)ncnc32)c1` [Example T556, 2-(3-chloro-4-(6-(1-methylcyclopropoxy)-9-((4-methylpyridin-2-yl)methyl)-9H-purin-8-yl)phenyl)-1-(1,6-diazaspiro[3.3]heptan-6-yl)ethan-1-one], the figure is 3.98 nM. On to `Cc1ccnc(Cn2c(-c3ccc(CC(=O)N4C5CNCC4C5)cc3Cl)nc3c(OC4(C)CC4)ncnc32)c1` [Example T557, 1-(3,6-diazabicyclo[3.1.1]heptan-6-yl)-2-(3-chloro-4-(6-(1-methylcyclopropoxy)-9-((4-methylpyridin-2-yl)methyl)-9H-purin-8-yl)phenyl)ethan-1-one], for which the IC50 was 3.16 nM.

As to `Cc1ccnc(Cn2c(-c3ccc(CC(=O)N4CC5(CNC5)C4)cc3Cl)nc3c(OC4(C)CC4)ncnc32)c1` [Example T558, 2-(3-chloro-4-(6-(1-methylcyclopropoxy)-9-((4-methylpyridin-2-yl)methyl)-9H-purin-8-yl)phenyl)-1-(2,6-diazaspiro[3.3]heptan-2-yl)ethan-1-one], the IC50 is 3.16 nM. This counts as single-digit nanomolar. For `Cc1ccnc(Cn2c(-c3ccc(CC(=O)N4C[C@@H]5C[C@H]4CN5)cc3Cl)nc3c(OC4(C)CC4)ncnc32)c1` [Example T559, 1-((1S,4S)-2,5-diazabicyclo[2.2.1]heptan-2-yl)-2-(3-chloro-4-(6-(1-methylcyclopropoxy)-9-((4-methylpyridin-2-yl)methyl)-9H-purin-8-yl)phenyl)ethan-1-one], the IC50 is 7.94 nM. With `CC1(Oc2ncnc3c2nc(-c2ccc(OCCCCCCC(=O)O)cc2Cl)n3Cc2cccc(Cl)c2)CC1` [Example T561, 7-(3-chloro-4-(9-(3-chlorobenzyl)-6-(1-methylcyclopropoxy)-9H-purin-8-yl)phenoxy)heptanoic acid], half-maximal inhibition (IC50) was put at 6.31 nM. `CC(C)(CCOc1ccc(-c2nc3c(OC4(C)CC4)ncnc3n2Cc2cccc(Cl)c2)c(Cl)c1)CC(=O)O` [Example T562, 5-(3-chloro-4-(9-(3-chlorobenzyl)-6-(1-methylcyclopropoxy)-9H-purin-8-yl)phenoxy)-3,3-dimethylpentanoic acid] had an IC50 of 5.01 nM.

Regarding `CC1(Oc2ncnc3c2nc(-c2ccc(OCCCC(C)(C)C(=O)O)cc2Cl)n3Cc2cccc(Cl)c2)CC1` [Example T563, 5-(3-chloro-4-(9-(3-chlorobenzyl)-6-(1-methylcyclopropoxy)-9H-purin-8-yl)phenoxy)-2,2-dimethylpentanoic acid], the IC50 was 3.16 nM. In the case of `CC1(Oc2ncnc3c2nc(-c2cccc(OCCCCCCC(=O)O)c2Cl)n3Cc2cccc(Cl)c2)CC1` [Example T564, 7-(2-chloro-3-(9-(3-chlorobenzyl)-6-(1-methylcyclopropoxy)-9H-purin-8-yl)phenoxy)heptanoic acid], the IC50 was 7.94 nM.
